What was measured:
[1] = HPLC-assay for in-use stability after reconstitution with 4.2% sodium hydrogen carbonate solution (Example 3, peptides SEQ ID NO 11-23); assay type: physicochemical
Experimental: For clinical trials the above described formulation is dissolved in 700 μl sodium hydrogen carbonate (4.2%). To dissolve the lyophilisate, the vial and the diluent shall be shaken vigorously for 1 minute, check whether solution is clear, otherwise continue shaking for another minute until the solution is clear. Administration of 500 μL of the solution has to occur within 1 h after reconstitution. Dissolved lyophilisate may be stored aseptically at room temperature for up to 1 hour following reconstitution.
(§1) Identity, purity and peptide content are determined by analytical RP-HPLC chromatography. Detection wavelength was 220 nm.

[2] = HPLC-assay for stability of peptides in lyophilised formulation on storage for 3 months (Example 4); assay type: physicochemical; conditions: for stability of peptides in formulation, 1 M: 1 month; for stability of peptides in formulation, 2 M: 2 months; for stability of peptides in formulation, 3 M: 3 months
Experimental: as §1

| Molecule | in-use stability, Peptide [%] ([1]; +Mannitol/Lutrol, 4h) | in-use stability, Peptide [%] ([1]; no excipients, 4h) | stability of peptides in formulation, 1 M ([2]; +5° C. +/- 3° C.) | stability of peptides in formulation, 2 M ([2]; +5° C. +/- 3° C.) | stability of peptides in formulation, 3 M ([2]; +5° C. +/- 3° C.) | stability of peptides in formulation, INITIAL ([2]; +5° C. +/- 3° C.) [%] | stability of peptides in formulation, 1 M ([2]; +25° C. +/- 2° C.) | stability of peptides in formulation, 2 M ([2]; +25° C. +/- 2° C.) | stability of peptides in formulation, 3 M ([2]; +25° C. +/- 2° C.) | stability of peptides in formulation, INITIAL ([2]; +25° C. +/- 2° C.) [%] | stability of peptides in formulation, 1 M ([2]; -20° C. +/- 5° C.) | stability of peptides in formulation, 2 M ([2]; -20° C. +/- 5° C.) | stability of peptides in formulation, 3 M ([2]; -20° C. +/- 5° C.) | stability of peptides in formulation, INITIAL ([2]; -20° C. +/- 5° C.) [%] | in-use stability, Peptide [%] ([1]; +Mannitol/Lutrol, 2h) | in-use stability, Peptide [%] ([1]; +Mannitol/Lutrol, 6h) | in-use stability, Peptide [%] ([1]; +Mannitol/Lutrol, Initial) | in-use stability, Peptide [%] ([1]; no excipients, 2h) | in-use stability, Peptide [%] ([1]; no excipients, 6h) | in-use stability, Peptide [%] ([1]; no excipients, Initial) |
| --- | --- | --- | --- | --- | --- | --- | --- | --- | --- | --- | --- | --- | --- | --- | --- | --- | --- | --- | --- | --- |
| CC(C)C[C@H](NC(=O)[C@@H](NC(=O)[C@@H](NC(=O)[C@@H](NC(=O)CNC(=O)[C@H](C)NC(=O)[C@H](Cc1c[nH]c2ccccc12)NC(=O)[C@H](CC(C)C)NC(=O)[C@@H](N)CO)C(C)C)C(C)C)C(C)C)C(=O)O [CHI-001, SLWAGVVVL] | 100.7 | 101.3 | – | – | – | – | – | – | – | – | – | – | – | – | – | – | – | – | – | – |
| FLPSDFFPSV [HBV-001] | 100.6 | 100.6 | 98.87 % of Initial | 97.76 % of Initial | 98.47 % of Initial | 100.0 | 97.83 % of Initial | 96.47 % of Initial | 97.50 % of Initial | 100.0 | 98.93 % of Initial | 97.39 % of Initial | 98.34 % of Initial | 100.0 | 100.3 | 100.3 | 100.0 | 100.2 | 95.8 | 100.0 |
